Patent US7632933B2, “Corticotropin releasing factor 2 receptor agonists” (priority 2002, dated 2009)

Experiments:
[1] = target: T1, CRF2R (Homo sapiens, UniProt Q13324); test: CRF2R agonist activity (EC50 and Emax), called comparative CRF binding; type: cell-based; conditions: CRF2R EC50 (nM), CRF2R
T1 sequence (Q13324 1-411): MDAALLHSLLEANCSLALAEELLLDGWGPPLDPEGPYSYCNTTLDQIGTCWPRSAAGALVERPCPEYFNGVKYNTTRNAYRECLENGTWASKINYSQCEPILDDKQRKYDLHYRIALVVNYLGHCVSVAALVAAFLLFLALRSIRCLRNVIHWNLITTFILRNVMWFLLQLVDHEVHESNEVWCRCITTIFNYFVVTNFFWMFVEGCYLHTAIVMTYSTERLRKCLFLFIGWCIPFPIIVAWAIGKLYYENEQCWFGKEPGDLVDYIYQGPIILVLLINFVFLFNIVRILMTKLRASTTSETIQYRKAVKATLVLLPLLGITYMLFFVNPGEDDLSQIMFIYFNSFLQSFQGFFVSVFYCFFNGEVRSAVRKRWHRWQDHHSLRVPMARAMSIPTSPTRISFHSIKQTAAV
Method in brief: (§1)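 Steps: express single CRFR subtype in cells; add peptide or vehicle; prepare lysates or quantify CRE-linked reporter (e.g. luciferase, CAT, GFP, alkaline phosphatase) to gauge cAMP increase.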

[2] = target: T2, CRF1R (Homo sapiens, UniProt P34998); test: CRF1R agonist activity (EC50 and Emax), called comparative CRF binding; type: cell-based; conditions: CRF1R EC50 (nM), CRF1R
T2 sequence (P34998 24-415): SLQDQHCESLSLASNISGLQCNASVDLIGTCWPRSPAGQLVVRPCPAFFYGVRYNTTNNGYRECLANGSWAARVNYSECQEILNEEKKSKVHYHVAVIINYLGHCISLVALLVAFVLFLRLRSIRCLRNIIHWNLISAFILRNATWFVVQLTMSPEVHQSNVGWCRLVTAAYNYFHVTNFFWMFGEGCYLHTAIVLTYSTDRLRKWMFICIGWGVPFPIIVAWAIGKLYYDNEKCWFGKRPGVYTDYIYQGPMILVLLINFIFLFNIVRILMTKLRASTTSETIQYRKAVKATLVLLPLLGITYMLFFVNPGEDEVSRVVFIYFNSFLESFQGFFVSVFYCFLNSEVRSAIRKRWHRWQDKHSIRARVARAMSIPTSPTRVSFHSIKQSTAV
Method in brief: as §1

| Structure (SMILES) | EC50 [1] | EC50 [2] |
| --- | --- | --- |
| CC[C@H](C)[C@H](NC(=O)[C@@H](NC(=O)[C@H](CC(=O)O)NC(=O)[C@H](CC(C)C)NC(=O)[C@H](CC(C)C)NC(=O)[C@H](CC(C)C)NC(=O)[C@H](CCCNC(=N)N)NC(=O)[C@H](CC(N)=O)NC(=O)[C@H](CC(N)=O)NC(=O)[C@H](C)NC(=O)[C@H](C)NC(=O)[C@H](CCC(N)=O)NC(=O)[C@H](CCC(N)=O)NC(=O)[C@H](CCCCN)NC(=O)[C@H](CCC(=O)O)NC(=O)[C@H](CCCCN)NC(=O)[C@H](CCC(=O)O)NC(=O)[C@H](CCC(N)=O)NC(=O)[C@H](CCCCN)NC(=O)[C@H](CCC(=O)O)NC(=O)[C@@H](NC(=O)[C@H](CCC(=O)O)NC(=O)[C@@H](NC(=O)[C@H](CCSC)NC(=O)[C@H](CCCCN)NC(=O)[C@H](CCCNC(=N)N)NC(=O)[C@H](CC(C)C)NC(=O)[C@H](CC(C)C)NC(=O)[C@H](CCCNC(=N)N)NC(=O)[C@@H](NC(=O)[C@@H]1CCCN1C(=O)[C@H](CC(C)C)NC(=O)[C@H](CC(=O)O)NC(=O)[C@@H](NC(=O)[C@H](CO)NC(=O)[C@@H](NC(=O)[C@@H]1CCCN1C(=O)[C@@H]1CCCN1C(=O)CNC(=O)[C@@H]1CCC(=O)N1)[C@@H](C)CC)[C@@H](C)CC)[C@@H](C)O)[C@@H](C)CC)[C@@H](C)CC)[C@@H](C)O)C(N)=O [compound 60] | > 100 nM | > 100 nM |
| CC[C@H](C)[C@H](NC(=O)[C@@H](NC(=O)[C@H](CC(=O)O)NC(=O)[C@H](CC(C)C)NC(=O)[C@H](CC(C)C)NC(=O)[C@H](CC(C)C)NC(=O)[C@H](CCCNC(=N)N)NC(=O)[C@H](CC(N)=O)NC(=O)[C@H](CC(N)=O)NC(=O)[C@H](C)NC(=O)[C@H](C)NC(=O)[C@H](CCC(N)=O)NC(=O)[C@H](CCC(N)=O)NC(=O)[C@H](CCCCN)NC(=O)[C@H](CCC(=O)O)NC(=O)[C@H](CCCCN)NC(=O)[C@H](CCC(=O)O)NC(=O)[C@H](CCC(N)=O)NC(=O)[C@H](CCCCN)NC(=O)[C@H](CCC(=O)O)NC(=O)[C@@H](NC(=O)[C@H](CCC(=O)O)NC(=O)[C@@H](NC(=O)[C@H](CCSC)NC(=O)[C@H](CCCCN)NC(=O)[C@H](CCCNC(=N)N)NC(=O)[C@H](CC(C)C)NC(=O)[C@H](CC(C)C)NC(=O)[C@H](CC(N)=O)NC(=O)[C@@H](NC(=O)[C@@H]1CCCN1C(=O)[C@H](CC(C)C)NC(=O)[C@H](CC(=O)O)NC(=O)[C@@H](NC(=O)[C@H](CO)NC(=O)[C@@H](NC(=O)[C@@H]1CCCN1C(=O)[C@@H]1CCCN1C(=O)CNC(=O)[C@@H]1CCC(=O)N1)[C@@H](C)CC)[C@@H](C)CC)[C@@H](C)CC)[C@@H](C)CC)[C@@H](C)CC)[C@@H](C)O)C(N)=O [compound 37] | > 100 nM | > 1000 nM |
| CC[C@H](C)[C@H](NC(=O)[C@@H](NC(=O)[C@H](CC(=O)O)NC(=O)[C@H](CC(C)C)NC(=O)[C@H](CC(C)C)NC(=O)[C@H](CC(C)C)NC(=O)[C@H](C)NC(=O)[C@H](CC(N)=O)NC(=O)[C@H](CC(N)=O)NC(=O)[C@H](C)NC(=O)[C@H](C)NC(=O)[C@H](CCC(N)=O)NC(=O)[C@H](CCC(N)=O)NC(=O)[C@H](CCCCN)NC(=O)[C@H](CCC(=O)O)NC(=O)[C@H](CCCCN)NC(=O)[C@H](CCC(=O)O)NC(=O)[C@H](CCC(N)=O)NC(=O)[C@H](CCCCN)NC(=O)[C@H](CCC(=O)O)NC(=O)[C@@H](NC(=O)[C@H](CCC(=O)O)NC(=O)[C@@H](NC(=O)[C@@H](NC(=O)[C@H](CCCCN)NC(=O)[C@H](CCCNC(=N)N)NC(=O)[C@H](CC(C)C)NC(=O)[C@H](CC(C)C)NC(=O)[C@H](Cc1ccccc1)NC(=O)[C@H](Cc1ccccc1)NC(=O)[C@@H]1CCCN1C(=O)[C@H](CC(C)C)NC(=O)[C@H](CC(=O)O)NC(=O)[C@@H](NC(=O)[C@H](CO)NC(=O)[C@@H](NC(=O)[C@@H]1CCCN1C(=O)[C@@H]1CCCN1C(=O)CNC(=O)[C@@H]1CCC(=O)N1)[C@@H](C)CC)[C@@H](C)CC)C(C)C)[C@@H](C)CC)[C@@H](C)CC)[C@@H](C)O)C(N)=O [compound 316] | 10.2 nM | 221 nM |
